In publication PMC10892419, “UHPLC-MS/MS Assay for Quantification of Legubicin, a Novel Doxorubicin-Based Legumain-Activated Prodrug, and Its Application to Pharmacokinetic and Tissue Distribution Studies” (Molecules, 2024):

Tests used:
[1] = Storage stability of analytes in mouse liver homogenate (method validation); conditions: 3 cycles, low QC (Leu-DOX 27, DOX 10 pmol/mL), n = 6
[2] = Tissue-distribution study after i.v. legubicin or doxorubicin; conditions: HT1080 tumor-bearing mice, i.v. 9.05 µmol/kg of the labelled drug, n = 6; tissue-to-plasma ratio
Experimental: The mixture was vortexed for 3 min, and then centrifuged at 22,000× g at 4 °C for 10 min. A final analysis was conducted by injecting 5 µL supernatant into a UHPLC-MS/MS system. Mouse plasma samples were treated in the same way as the rat plasma samples, except for protein precipitation, with 200 µL of 5 pmol/mL IS working solution and injection of 2 µL of supernatant for analysis.
Each legubicin administration group corresponded to a sampling time-point (4, 16, 32, 48, 96, 168, and 240 h after administration). […] Blood samples and tumor, heart, and kidney tissues were collected at the sampling time points (4, 16, 32, 48, 96, 168, and 240 h after dosing). In addition, liver, spleen, lung, stomach, small intestine, gonads, brain, skeletal muscle, and skin were also collected at 4, 32, 96, and 240 h post-dose time points in the legubicin administration group. All whole-blood samples were processed according to the same processing steps, described above, for rat whole-blood samples.
The analysis software (Version 1.5.2, AB Sciex, Vaughan, ON, Canada) was applied to data acquisition and quantification. Pharmacokinetic parameters were calculated with WinNonlin Phoenix (v6.4, Pharsight, Mountain View, CA, USA) with the noncompartmental method, and were presented as mean ± SD (%CV). The “Best fit” strategy in the WinNonlin Phoenix was used for the calculation of elimination half-life and the selection of the elimination phase. Graphs were plotted by GraphPad Software (GraphPad Prism 8.0.2; GraphPad Software, Inc., La Jolla, CA, USA).

With `COc1cccc2c1C(=O)c1c(O)c3c(c(O)c1C2=O)C[C@@](O)(C(=O)CO)C[C@@H]3O[C@H]1C[C@H](N)[C@H](O)[C@H](C)O1` [DOX, Doxorubicin] the “Freeze and thaw stability at -80 °C/ room temperature, Bias” value [1] was 10.4%, the “T/P Ratio of doxorubicin, heart” value [2] was 27.1 and the “T/P Ratio of doxorubicin, kidney” value [2] was 78.0. The “T/P Ratio of doxorubicin, plasma” value [2] was 1.0 and the “T/P Ratio of doxorubicin, tumor” value [2] was 59.0.
